## Ab-91 heavy chain CDR variants: yeast mating affinities

Binding partner: SARS-CoV-2 spike HR2 peptide, sequence PDVDLGDISGINAS.

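The parent was found by panning a naive human phage display library on the peptide. In library AAYL51, one, two or three CDR residues were substituted; doubles and triples were drawn at random. In AlphaSeq, yeast of one mating type display the scFv and yeast of the other type display the target. After mating in shaken culture at 30 °C for 16 h, diploids were selected and their barcode pairs sequenced. Scores were corrected for input abundance and mapped to Kd with protein pairs of known affinity run in the same pool. There are three technical replicates.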

Each scFv is VL, the linker GGGGSGGGGSGGGGS, VH, as in the parent Ab-91, and differs from it in the CDRs of the heavy chain only.
VL: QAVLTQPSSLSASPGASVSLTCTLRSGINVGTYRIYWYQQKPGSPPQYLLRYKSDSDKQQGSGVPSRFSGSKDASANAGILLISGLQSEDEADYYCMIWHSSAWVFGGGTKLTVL
VH: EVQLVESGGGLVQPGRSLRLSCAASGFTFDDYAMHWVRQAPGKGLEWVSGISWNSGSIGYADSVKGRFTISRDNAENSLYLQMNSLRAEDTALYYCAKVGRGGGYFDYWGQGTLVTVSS

Positions count from residue 1 of the parent VH; D30P puts P in place of D. Values are apparent Kd, the geometric mean of the replicates that gave a signal; lower means stronger binding. "not detected" means that the variant was in the library but no mating with the target was seen in any replicate; the authors take this as a sign of poor binding, and no number exists.

| Kd (apparent) | seen in | changes |
|---|---|---|
| not detected | 0/3 | D30P/G50Q/N54E |
| 10 nM | 3/3 | Y32T/H35E/D107L |
| not detected | 0/3 | G26T/D30A/G59I |
| not detected | 0/3 | G59F/G103P |
| 6.6 µM | 1/3 | Y60P/R101S/G102C |
| 270 µM | 1/3 | Y60R/G103I/Y105K |
| 46 µM | 2/3 | S55W/D62H/F106N |
| 51 µM | 1/3 | D31N/G50D/Y60S |
| 19 µM | 2/3 | A33C/G50T/N54R |
| not detected | 0/3 | H35Y/N54T/G56H |
| 15 µM | 3/3 | F27V/R101C/D107V |
| 58 nM | 3/3 | G26V/I58N/K65Y |
| 650 µM | 1/3 | F29H/A33M/W53Y |
| 350 nM | 3/3 | D62I/S63P/V99P |
| 7.6 µM | 1/3 | G56A/S63G/F106G |
| not detected | 0/3 | N54T/Y105D |
| 110 µM | 1/3 | G26T/H35K/I58A |
| 42 µM | 3/3 | G26L/T28Y/D62V |
| 18 µM | 2/3 | T28W/G50S/S63F |
| not detected | 0/3 | M34E/A61L |
| 7.7 nM | 3/3 | D31E/S63I |
| 7.8 nM | 3/3 | G56V/K65I/G103M |
| 41 nM | 3/3 | T28F/S57M |
| not detected | 0/3 | H35R/G103C/G104Q |
| 15 µM | 3/3 | D30R/A33V/V64M |
| not detected | 0/3 | A33F/V64N/G100W |
| 32 µM | 1/3 | D31V/G50N/G100E |
| 7.8 µM | 1/3 | G26W/F29N/F106C |
| 5.1 µM | 1/3 | G26C/N54E/S55V |
| 24 µM | 2/3 | Y60T/G102I/G103V |
| 48 µM | 2/3 | D31K/H35M/Y105P |
| 4.0 µM | 1/3 | F29Q/G104V/D107P |
| not detected | 0/3 | G26L/W53R/D62K |
| 12 nM | 3/3 | D30G/D31V/G104L |
| 9.8 µM | 1/3 | V99W/G103H/D107R |
| not detected | 0/3 | Y32E/G102I/Y108D |
| 130 µM | 3/3 | F29L/M34P/I51P |
| 1.1 mM | 1/3 | N54A/Y60F/A61M |
| 1.6 µM | 3/3 | G26S/V99A |
| not detected | 0/3 | D31C/G50K/G56M |
| 38 µM | 1/3 | I58E/G59R/G104N |
| not detected | 0/3 | N54Q/G59N/Y60W |
| 110 µM | 2/3 | G50D/W53E |
| 9.7 µM | 1/3 | G26L/F27I/I58E |
| not detected | 0/3 | F29Q/S57L/A61R |
| not detected | 0/3 | S57M/D62Q/Y105V |
| not detected | 0/3 | F27I/S52N/Y108T |
| 11 nM | 3/3 | D30Q/I58H/Y108M |
| 160 nM | 3/3 | Y32M/V99I/G104R |
| not detected | 0/3 | D30P/H35Q/Y60P |
| 5.4 µM | 1/3 | F27H/G59K |
| 14 nM | 3/3 | T28Q/G102S/Y108M |
| 510 µM | 1/3 | S52P/S57L/V64Q |
| 16 µM | 1/3 | G26W/I58Q/G59L |
| 48 µM | 1/3 | D62C/G100C/G103K |
| 350 µM | 1/3 | G50M/G59C/G102H |
| 10 nM | 3/3 | S57D/I58N/G100W |
| not detected | 0/3 | S57D/I58D/V99K |
| 75 nM | 3/3 | D30A/G56R/G103A |
| 61 µM | 1/3 | Y32C/A33S/F106Y |
| 100 µM | 2/3 | K65H/F106G |
| 49 µM | 3/3 | G26K/G56L/Y108S |
| not detected | 0/3 | I51T/N54V/D107Y |
| not detected | 0/3 | Y32D/I51H/G100E |
| 150 nM | 1/3 | T28D/W53G/D62K |
| not detected | 0/3 | M34N/S55Y/G59I |
| not detected | 0/3 | D31T/K65P/Y108V |
| 200 µM | 3/3 | F27H/N54Q/G103R |
| not detected | 0/3 | M34V/W53A/N54K |
| 200 µM | 3/3 | D30K/K65H/D107I |
| not detected | 0/3 | K65M/D107P/Y108Q |
| 6.7 µM | 1/3 | D31K/G50F/G102N |
| 12 nM | 3/3 | D31A/Y32V/S57M |
| 23 µM | 1/3 | Y32V/I51F/R101I |
| not detected | 0/3 | T28D/F29L/V64P |
| not detected | 0/3 | F27L/N54P/Y108P |
| not detected | 0/3 | W53R/V64L/Y105H |
| 5.4 µM | 3/3 | D31E/V64I/Y105V |
| not detected | 0/3 | D30K/S57I/I58R |

Top 11 of the variants detected in all replicates, tightest first:

| changes | Kd (apparent) | seen in |
|---|---|---|
| D31E/S63I | 7.7 nM | 3/3 |
| G56V/K65I/G103M | 7.8 nM | 3/3 |
| Y32T/H35E/D107L | 10 nM | 3/3 |
| S57D/I58N/G100W | 10 nM | 3/3 |
| D30Q/I58H/Y108M | 11 nM | 3/3 |
| D31A/Y32V/S57M | 12 nM | 3/3 |
| D30G/D31V/G104L | 12 nM | 3/3 |
| T28Q/G102S/Y108M | 14 nM | 3/3 |
| T28F/S57M | 41 nM | 3/3 |
| G26V/I58N/K65Y | 58 nM | 3/3 |
| D30A/G56R/G103A | 75 nM | 3/3 |

As a blank, each scFv also met three strains without target: over library AAYL51, 21% of these pairings were detected, typically at 34 µM and seldom below 1.8 µM.

Source: Engelhart et al. 2022 (doi:10.1038/s41597-022-01779-4), MIT Lincoln Laboratory and A-Alpha Bio; data file from the FLAb repository.